Laboratory results published in patent US20110319398A1 (priority 2010, published 2011).

System: E. coli expressing YadA
Test: Adherence of E. coli expressing YadA to HEp-2 cells (ELISA)
Conditions: 60 μM C20, pDS132-yadA

**Q.** For `Cc1nn(-c2ccccc2)c(C)c1/N=C/c1c(O)ccc2ccccc12` [Compound C20, 1-[(E)-(3,5-dimethyl-1-phenyl-pyrazol-4-yl)iminomethyl]naphthalen-2-ol], which “Adherence of E. coli expressing YadA to HEp-2 cells” value is on record?
**A.** The value was “did not block the ability of E. coli expressing YadA to adhere”.
